Earlier results on 1 molecule are cited in publication PMC12555108, “In‐vitro Assessment of BCRP‐Mediated Efflux of Antiseizure Medications in Human Blood‐Brain Barrier Cell Model” (Journal of Biochemical and Molecular Toxicology, 2025).

Details of the data set: method as in Johannessen, 2004; Patsalos, 2008; Lee, 2016. To be noted: patients with epilepsy; ref Johannessen, 2004; Patsalos, 2008; Lee, 2016; cited from earlier work.

On to `Nc1nnc(-c2cccc(Cl)c2Cl)c(N)n1` [LTG, lamotrigine], for which the “Therapeutic plasma concentration range” value was 10 to 60 µM.
